Laboratory results from patent US20260382582A1, “G-PROTEIN COUPLED RECEPTOR ANTAGONIST” (published 2026).
pIC50: −log10 of the molar value. Like-named read-outs stand apart in the source and are kept apart here.

Chains of the proteins cited; added tags and fusions are not shown.
UniProt Q96LA9, whole entry: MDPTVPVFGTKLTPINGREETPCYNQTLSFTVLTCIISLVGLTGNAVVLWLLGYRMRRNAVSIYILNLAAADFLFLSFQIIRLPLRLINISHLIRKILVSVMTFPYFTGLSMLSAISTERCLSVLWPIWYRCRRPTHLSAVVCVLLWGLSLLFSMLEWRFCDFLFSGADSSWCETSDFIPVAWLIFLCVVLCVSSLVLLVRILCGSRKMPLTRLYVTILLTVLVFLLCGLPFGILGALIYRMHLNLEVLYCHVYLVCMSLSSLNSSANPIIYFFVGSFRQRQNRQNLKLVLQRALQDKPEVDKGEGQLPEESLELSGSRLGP

Molecular target: MRGPRX4 (Homo sapiens, UniProt Q96LA9)
Experiment: MRGPRX4 activity assay, antagonism versus deoxycholic acid (DCA), IP-One Gq HTRF
Conditions: SH-4 cells
[1] = read-out: MRGPRX4 antagonist activity, versus 30 μM DCA agonist, Table 3

pIC50 [1]	pIC50 (30 μM DCA agonist, Table 1)	Compound
< 5.52	–	CC(C)(C)c1ccc2c(c1)CC(c1cccc(C(=O)O)c1)O2 (stereo not shown)
5.52 to 6.00	–	CC(C)c1ccc2c(c1)CC(c1cccc(C(=O)O)c1)O2 (stereo not shown)
5.52 to 6.00	–	CCS(=O)(=O)NC(=O)c1cccc([C@@H]2Cc3cc(C(F)(F)F)ccc3O2)c1
5.52 to 6.00	–	CN(C)S(=O)(=O)NC(=O)c1cccc([C@@H]2Cc3cc(C(F)(F)F)ccc3O2)c1
< 5.52	–	COc1c(F)ccc(-c2cccc(C3Cc4cc(C(F)(F)F)ccc4O3)c2)c1F (stereo not shown)
6.00 to 6.30	–	COc1cc(-c2nnn[nH]2)cc(C2Cc3cc(C(F)(F)F)ccc3O2)c1 (stereo not shown)
> 7.00	–	Cc1cc(-c2nnn[nH]2)cc(C2Cc3cc(C(F)(F)F)ccc3O2)c1 (stereo not shown)
6.30 to 7.00	–	Cc1cc(-c2nnn[nH]2)nc(C2Cc3cc(C(F)(F)F)ccc3O2)c1 (stereo not shown)
6.30 to 7.00	–	Cc1cc(-c2noc(=O)[nH]2)cc([C@@H]2Cc3cc(C(F)(F)F)ccc3O2)c1
6.30 to 7.00	–	Cc1cc(-c2noc(=O)[nH]2)nc(C2Cc3cc(C(F)(F)F)ccc3O2)c1 (stereo not shown)
6.30 to 7.00	–	Cc1cc(Cl)cc2c1OC(c1cccc(-c3nnn[nH]3)c1)C2 (stereo not shown)
6.30 to 7.00	–	Cc1cc2c(cc1Cl)CC(c1cccc(-c3nnn[nH]3)c1)O2 (stereo not shown)
6.00 to 6.30	–	Cc1cc2c(cc1F)CC(c1cccc(-c3nnn[nH]3)c1)O2 (stereo not shown)
6.30 to 7.00	–	Clc1cc(Cl)c2c(c1)CC(c1cccc(-c3nnn[nH]3)c1)O2 (stereo not shown)
> 7.00	–	Clc1cc2c(cc1Cl)OC(c1cccc(-c3nnn[nH]3)c1)C2 (stereo not shown)
6.30 to 7.00	–	Clc1cc2c(cc1Cl)OC(c1cccc(-c3nnn[nH]3)n1)C2 (stereo not shown)
5.52 to 6.00	–	Cn1nnc(-c2cccc([C@@H]3Cc4cc(C(F)(F)F)ccc4O3)c2)n1
> 7.00	–	FC(F)(F)c1cc(Cl)c2c(c1)CC(c1cccc(-c3nnn[nH]3)c1)O2 (stereo not shown)
> 7.00	–	FC(F)(F)c1cc(Cl)c2c(c1)CC(c1cccc(-c3nnn[nH]3)n1)O2 (stereo not shown)
6.00 to 6.30	–	FC(F)(F)c1ccc2c(c1)CC(c1cc(-c3nnn[nH]3)cs1)O2 (stereo not shown)
< 5.52	–	FC(F)(F)c1ccc2c(c1)CC(c1ccc(-c3nnn[nH]3)s1)O2 (stereo not shown)
5.52 to 6.00	–	FC(F)(F)c1ccc2c(c1)CC(c1cccc(-c3ccccn3)c1)O2 (stereo not shown)
< 5.52	–	FC(F)(F)c1ccc2c(c1)CC(c1cccc(-c3ncc[nH]3)c1)O2 (stereo not shown)
> 7.00	7.40	FC(F)(F)c1ccc2c(c1)CC(c1cccc(-c3nnn[nH]3)c1)O2 (stereo not shown)
> 7.00	–	FC(F)(F)c1ccc2c(c1)CC(c1cccc(-c3nnn[nH]3)n1)O2 (stereo not shown)

pIC50 [1]	pIC50 (30 μM DCA agonist, Table 1)	Compound
6.30 to 7.00	–	FC(F)(F)c1ccc2c(c1)CC(c1ccnc(-c3nnn[nH]3)c1)O2 (stereo not shown)
< 5.52	–	FC(F)(F)c1ccc2c(c1)CC(c1cncc(-c3nnn[nH]3)c1)O2 (stereo not shown)
6.00 to 6.30	–	FC(F)(F)c1ccc2c(c1)OC(c1cccc(-c3nnn[nH]3)c1)C2 (stereo not shown)
6.30 to 7.00	–	FC(F)c1ccc2c(c1)CC(c1cccc(-c3nnn[nH]3)c1)O2 (stereo not shown)
> 7.00	–	Fc1c(-c2nnn[nH]2)cccc1C1Cc2cc(C(F)(F)F)ccc2O1 (stereo not shown)
6.30 to 7.00	–	Fc1cc(-c2nnn[nH]2)cc([C@@H]2Cc3cc(C(F)(F)F)ccc3O2)c1
> 7.00	–	Fc1cc2c(cc1Cl)CC(c1cccc(-c3nnn[nH]3)c1)O2 (stereo not shown)
> 7.00	–	Fc1cc2c(cc1Cl)CC(c1cccc(-c3nnn[nH]3)n1)O2 (stereo not shown)
6.30 to 7.00	–	Fc1cc2c(cc1Cl)OC(c1cccc(-c3nnn[nH]3)c1)C2 (stereo not shown)
6.30 to 7.00	–	Fc1cc2c(cc1F)OC(c1cccc(-c3nnn[nH]3)c1)C2 (stereo not shown)
> 7.00	–	N#Cc1cc(-c2nnn[nH]2)cc(C2Cc3cc(C(F)(F)F)ccc3O2)c1 (stereo not shown)
> 7.00	–	N#Cc1cc(-c2noc(=O)[nH]2)cc(C2Cc3cc(C(F)(F)F)ccc3O2)c1 (stereo not shown)
> 7.00	–	N#Cc1cc(-c2noc(=O)[nH]2)cc(C2Cc3cc(Cl)c(F)cc3O2)c1 (stereo not shown)
< 5.52	–	NS(=O)(=O)c1cccc(C2Cc3cc(C(F)(F)F)ccc3O2)c1 (stereo not shown)
6.30 to 7.00	–	Nc1c(-c2nnn[nH]2)cccc1C1Cc2cc(C(F)(F)F)ccc2O1 (stereo not shown)
< 5.52	–	O=C(NO)c1cccc([C@@H]2Cc3cc(C(F)(F)F)ccc3O2)c1
6.00 to 6.30	–	O=C(O)CCNC(=O)c1cccc([C@@H]2Cc3cc(C(F)(F)F)ccc3O2)c1
5.52 to 6.00	–	O=C(O)c1cc(C2Cc3cc(C(F)(F)F)ccc3O2)ccn1 (stereo not shown)
–	5.70	O=C(O)c1ccc([C@@H]2CCc3cc(C(F)(F)F)ccc3O2)cc1
–	5.22	O=C(O)c1ccc([C@H]2CCc3cc(C(F)(F)F)ccc3O2)cc1
< 5.52	–	O=C(O)c1cccc(C2CCCc3cc(C(F)(F)F)ccc3O2)c1 (stereo not shown)
< 5.52	–	O=C(O)c1cccc(C2CCc3cc(C(F)(F)F)ccc3OC2)c1 (stereo not shown)
5.52 to 6.00	–	O=C(O)c1cccc(C2Cc3cc(-c4ccc(F)cc4)ccc3O2)c1 (stereo not shown)
5.52 to 6.00	–	O=C(O)c1cccc(C2Cc3cc(-c4ccsc4)ccc3O2)c1 (stereo not shown)
6.30 to 7.00	–	O=C(O)c1cccc(C2Cc3cc(C(F)(F)F)cc(Cl)c3O2)c1 (stereo not shown)

pIC50 [1]	pIC50 (30 μM DCA agonist, Table 1)	Compound
6.00 to 6.30	–	O=C(O)c1cccc(C2Cc3cc(C(F)(F)F)ccc3O2)c1 (stereo not shown)
6.30 to 7.00	–	O=C(O)c1cccc(C2Cc3cc(C(F)(F)F)ccc3O2)c1F (stereo not shown)
6.00 to 6.30	–	O=C(O)c1cccc(C2Cc3cc(C(F)(F)F)ccc3O2)n1 (stereo not shown)
6.00 to 6.30	–	O=C(O)c1cccc(C2Cc3cc(Cl)c(Cl)cc3O2)c1 (stereo not shown)
6.30 to 7.00	–	O=C(O)c1cccc(C2Cc3cc(Cl)c(F)cc3O2)c1 (stereo not shown)
6.00 to 6.30	–	O=C(O)c1cccc(C2Cc3cc(OC(F)(F)F)c(Cl)cc3O2)c1 (stereo not shown)
6.00 to 6.30	–	O=C(O)c1cccc(C2Cc3cc(OC(F)(F)F)ccc3O2)c1 (stereo not shown)
5.52 to 6.00	–	O=C(O)c1cccc(C2Cc3ccc(C(F)(F)F)cc3O2)c1 (stereo not shown)
–	5.70	O=C(O)c1cccc([C@@H]2CCc3cc(C(F)(F)F)ccc3O2)c1
–	6.54	O=C(O)c1cccc([C@@H]2Cc3cc(C(F)(F)F)ccc3O2)c1
–	< 4.00	O=C(O)c1cccc([C@H]2CCc3cc(C(F)(F)F)ccc3O2)c1
–	5.70	O=C(O)c1cccc([C@H]2Cc3cc(C(F)(F)F)ccc3O2)c1
< 5.52	–	O=C(O)c1ccnc(C2Cc3cc(C(F)(F)F)ccc3O2)c1 (stereo not shown)
< 5.52	–	O=C(O)c1cncc(C2Cc3cc(C(F)(F)F)ccc3O2)c1 (stereo not shown)
5.52 to 6.00	–	O=S(=O)(O)c1cccc(C2Cc3cc(C(F)(F)F)cc(Cl)c3O2)c1 (stereo not shown)
6.30 to 7.00	–	O=c1[nH]c(-c2cc(F)cc(C3Cc4cc(Cl)c(F)cc4O3)c2)no1 (stereo not shown)
6.30 to 7.00	–	O=c1[nH]c(-c2cc(F)cc([C@@H]3Cc4cc(C(F)(F)F)ccc4O3)c2)no1
> 7.00	–	O=c1[nH]c(-c2cccc(C3Cc4cc(C(F)(F)F)ccc4O3)c2)no1 (stereo not shown)
> 7.00	–	O=c1[nH]c(-c2cccc(C3Cc4cc(C(F)(F)F)ccc4O3)c2F)no1 (stereo not shown)
6.30 to 7.00	–	O=c1[nH]c(-c2cccc(C3Cc4cc(C(F)(F)F)ccc4O3)n2)no1 (stereo not shown)
6.30 to 7.00	–	O=c1[nH]c(-c2cccc(C3Cc4cc(Cl)c(F)cc4O3)c2)no1 (stereo not shown)
> 7.00	–	O=c1[nH]c(-c2cccc(C3Cc4cc(Cl)c(F)cc4O3)c2F)no1 (stereo not shown)
6.30 to 7.00	–	O=c1[nH]c(-c2cccc(C3Cc4cc(Cl)c(F)cc4O3)n2)no1 (stereo not shown)
5.52 to 6.00	–	O=c1[nH]c(-c2cccc(C3Cc4cc(Cl)cc(Cl)c4O3)c2)no1 (stereo not shown)
6.00 to 6.30	–	O=c1[nH]c(-c2cccc(C3Cc4cc(Cl)cc(Cl)c4O3)n2)no1 (stereo not shown)

pIC50 [1]	pIC50 (30 μM DCA agonist, Table 1)	Compound
6.30 to 7.00	–	O=c1[nH]c(-c2cccc([C@@H]3Cc4cc(C(F)(F)F)cc(Cl)c4O3)c2)no1
6.30 to 7.00	–	O=c1[nH]c(-c2cccc([C@@H]3Cc4cc(C(F)(F)F)ccc4O3)c2)no1
–	7.62	O=c1[nH]c(-c2cccc([C@@H]3Cc4cc(C(F)(F)F)ccc4O3)c2F)no1
5.52 to 6.00	–	O=c1oc(-c2cccc(C3Cc4cc(C(F)(F)F)ccc4O3)c2)ns1 (stereo not shown)
6.00 to 6.30	–	Oc1c(-c2nnn[nH]2)cccc1C1Cc2cc(C(F)(F)F)ccc2O1 (stereo not shown)
< 5.52	–	Oc1c(F)cc(-c2cccc(C3Cc4cc(C(F)(F)F)ccc4O3)c2)cc1F (stereo not shown)
5.52 to 6.00	–	Oc1cc(-c2cccc(C3Cc4cc(C(F)(F)F)ccc4O3)c2)on1 (stereo not shown)
6.30 to 7.00	–	Cc1cc(-c2noc(=O)[nH]2)nc([C@@H]2Cc3cc(C(F)(F)F)ccc3O2)c1 (single isomer, unassigned)
< 5.52	–	Cc1cc(-c2noc(=O)[nH]2)nc([C@H]2Cc3cc(C(F)(F)F)ccc3O2)c1 (single isomer, unassigned)
6.30 to 7.00	–	Cc1cc2c(cc1Cl)C[C@@H](c1cccc(-c3nnn[nH]3)c1)O2 (single isomer, unassigned)
6.30 to 7.00	–	Cc1cc2c(cc1Cl)C[C@H](c1cccc(-c3nnn[nH]3)c1)O2 (single isomer, unassigned)
> 7.00	–	FC(F)(F)c1cc(Cl)c2c(c1)C[C@@H](c1cccc(-c3nnn[nH]3)n1)O2 (single isomer, unassigned)
5.52 to 6.00	–	FC(F)(F)c1cc(Cl)c2c(c1)C[C@H](c1cccc(-c3nnn[nH]3)n1)O2 (single isomer, unassigned)
> 7.00	–	FC(F)(F)c1ccc2c(c1)C[C@@H](c1cccc(-c3nnn[nH]3)c1)O2 (single isomer, unassigned)
5.52 to 6.00	–	FC(F)(F)c1ccc2c(c1)C[C@H](c1cccc(-c3nnn[nH]3)c1)O2 (single isomer, unassigned)
6.30 to 7.00	–	N#Cc1cc(-c2nnn[nH]2)cc(C2Cc3cc(C(F)(F)F)ccc3O2)c1 (single isomer, unassigned)
> 7.00	–	N#Cc1cc(-c2nnn[nH]2)cc([C@H]2Cc3cc(C(F)(F)F)ccc3O2)c1 (single isomer, unassigned)
5.52 to 6.00	–	N#Cc1cc(-c2noc(=O)[nH]2)cc([C@H]2Cc3cc(C(F)(F)F)ccc3O2)c1 (single isomer, unassigned)
6.30 to 7.00	–	N#Cc1cc(-c2noc(=O)[nH]2)cc([C@H]2Cc3cc(Cl)c(F)cc3O2)c1 (single isomer, unassigned)
> 7.00	–	O=c1[nH]c(-c2cccc([C@@H]3Cc4cc(C(F)(F)F)ccc4O3)n2)no1 (single isomer, unassigned)
5.52 to 6.00	–	O=c1[nH]c(-c2cccc([C@H]3Cc4cc(C(F)(F)F)ccc4O3)c2F)no1 (single isomer, unassigned)
< 5.52	–	O=c1[nH]c(-c2cccc([C@H]3Cc4cc(C(F)(F)F)ccc4O3)n2)no1 (single isomer, unassigned)
< 5.52	–	O=c1[nH]c(-c2cccc([C@H]3Cc4cc(Cl)c(F)cc4O3)c2F)no1 (single isomer, unassigned)
< 5.52	–	O=c1[nH]c(-c2cccc([C@H]3Cc4cc(Cl)c(F)cc4O3)n2)no1 (single isomer, unassigned)
